Assay results as given in patent publication US20090312349A1, “ANTI-INFLAMMATORY MEDICAMENTS” (priority 2004, published 2009).

Chains of the proteins cited; added tags and fusions are not shown. Residues count along the entry.
UniProt Q16539, 1-360 isoform Q16539-2: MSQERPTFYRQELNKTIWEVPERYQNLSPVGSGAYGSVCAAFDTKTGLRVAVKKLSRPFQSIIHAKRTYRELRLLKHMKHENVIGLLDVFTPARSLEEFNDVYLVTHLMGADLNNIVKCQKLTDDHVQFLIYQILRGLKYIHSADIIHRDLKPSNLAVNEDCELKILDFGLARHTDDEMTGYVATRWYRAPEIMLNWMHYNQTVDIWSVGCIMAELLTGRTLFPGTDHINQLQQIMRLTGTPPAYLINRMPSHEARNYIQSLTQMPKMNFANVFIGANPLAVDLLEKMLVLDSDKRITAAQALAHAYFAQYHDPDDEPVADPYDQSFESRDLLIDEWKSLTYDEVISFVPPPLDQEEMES
UniProt Q16539, whole entry: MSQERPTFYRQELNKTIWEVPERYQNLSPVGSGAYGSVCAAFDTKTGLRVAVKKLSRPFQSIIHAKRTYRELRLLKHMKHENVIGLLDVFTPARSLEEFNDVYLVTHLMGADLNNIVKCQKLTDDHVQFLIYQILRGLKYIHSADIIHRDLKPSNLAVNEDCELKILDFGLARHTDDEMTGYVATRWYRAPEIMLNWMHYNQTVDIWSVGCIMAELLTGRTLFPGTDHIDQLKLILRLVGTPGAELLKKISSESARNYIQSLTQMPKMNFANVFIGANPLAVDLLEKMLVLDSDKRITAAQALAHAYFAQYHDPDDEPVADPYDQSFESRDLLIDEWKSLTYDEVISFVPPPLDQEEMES

Key:
[1] = molecular target: phosphorylated p-38-alpha kinase (Homo sapiens, UniProt Q16539); assay: P-38 alpha kinase assay P1; assay type: biochemical; conditions: Method P1; 2 h pre-incubation before ATP
[2] = molecular target: T1, phospho p-38 alpha kinase (Homo sapiens, UniProt Q16539); assay: P-38 alpha kinase assay (spectrophotometric, pyruvate kinase/lactate dehydrogenase coupled); assay type: biochemical; conditions: Table 3; rates at […] to 2 h
T1 construct: purchased Panvera
Protocol: In this assay, the oxidation of NADH was continuously measured spectrophometrically. […] The reaction was initiated by adding ATP. The absorption at 340 nm was monitored continuously for up to 4 hours at 30° C. on Polarstar Optima plate reader (BMG). The kinase activity (reaction rate) was calculated from the slope at the time frame from 1.5 h to 2 h.
For inhibition determinations, test compounds were incubated with the reaction mixture for ˜5 min before adding ATP to start the reaction. […] IC50 values were calculated from a series of % inhibition values determined at a range of concentrations of each inhibitor using Prism to process the data and fit inhibition curves. Generally, the rates obtained at the time frame of 1.5 h to 2 h were used for these calculations.

With Cc1ccc(NC(=O)Nc2cc(C(C)(C)C)nn2-c2cccc(CC(=O)NCC(O)CO)c2)cc1Nc1nccc(-c2cccnc2)n1 (stereo not shown) [Example 517, 1-(3-tert-butyl-1-(3-(2-(2,3-dihydroxypropylamino)-2-oxoethyl)phenyl)-1H-pyrazol-5-yl)-3-(4-methyl-3-(4-(pyridin-3-yl)pyrimidin-2-ylamino)phenyl)urea] the IC50 [1] was 0.025 µM.

Compound CCOC(=O)Cc1ccc(-n2nc(C(C)(C)C)cc2NC(=O)Nc2ccccc2F)cc1 [Example 201, 2-(4-(3-t-butyl-5-(3-(2-fluorophenyl)ureido)-1H-pyrazol-1-yl)-phenyl)acetate] has an IC50 [2] of 29 nM.

Compound CC(C)(C)c1cc(NC(=O)Nc2ccccc2F)n(-c2ccc(CC(=O)O)cc2)n1 [Example 203, 2-(4-(3-t-butyl-5-(3-(2-fluorophenyl)ureido)-1H-pyrazol-1-yl)phenyl)acetic acid] has an IC50 [2] of 328 nM.

Work on O=C(O)Cc1cccc(-n2nc(-c3ccccc3)cc2NC(=O)Nc2cccc(Cl)c2Cl)c1 [Example 430, 2-(3-(5-(3-(2,3-dichlorophenyl)ureido)-3-phenyl-1H-pyrazol-1-yl)phenyl)acetic acid] yielded an IC50 [1] of 0.006 µM.

CC(C(N)=O)c1cccc(-n2nc(-c3ccsc3)cc2NC(=O)Nc2cccc(Cl)c2Cl)c1 (stereo not shown) [Example 453, 1-(1-(3-(1-amino-1-oxopropan-2-yl)phenyl)-3-(thiophen-3-yl)-1H-pyrazol-5-yl)-3-(2,3-dichlorophenyl)urea] was tested, and the IC50 [1] was 0.04 µM.

In the case of COc1cccc(-n2nc(C(C)(C)C)cc2NC(=O)Nc2cccc(F)c2)c1 [Example 207, 1-(3-t-butyl-1-(3-methoxyphenyl)-1H-pyrazol-5-yl)-3-(3-fluorophenyl)urea], the IC50 [2] is reported as 33 nM.

Work on C=C1NS(=O)(=O)N(Cc2cccc(-n3nc(C(C)(C)C)cc3NC(=O)Nc3cccc(Cl)c3Cl)c2)C1=O [Example 511, 1-{5-t-butyl-2-[3-(4-methylene-1,1,3-trioxo-[1,2,5]thiadiazolidin-2-ylmethyl)-phenyl]-2H-pyrazol-3-yl}-3-(2,3-dichlorophenyl)-urea] yielded an IC50 [1] of 0.3 µM.

Compound O=C(Cc1ccc(-n2nc(-c3ccccc3)cc2NC(=O)Nc2cccc(Cl)c2Cl)cc1)NCCO [Example 470, 1-(2,3-dichlorophenyl)-3-(1-(4-(2-(2-hydroxyethylamino)-2-oxoethyl)phenyl)-3-phenyl-1H-pyrazol-5-yl)urea] has an IC50 [1] of 0.025 µM.

In the case of CC(C)(C)c1cc(NC(=O)Nc2ccc3c(c2)OCO3)n(-c2cccc(CC(N)=O)c2)n1 [Example 297, 1-{1-[3-(2-amino-2-oxoethyl)phenyl]-3-t-butyl-1H-pyrazol-5-yl}-3-(benzo[d][1,3]dioxol-5-yl)urea], the IC50 [2] is reported as 340 nM.

With CCOC(=O)c1cccc(-n2nc(C(C)(C)C)cc2NC(=O)Nc2ccccc2F)c1 [Example 199, ethyl 3-(3-t-butyl-5-[3-(2-fluorophenyl)ureido]-1H-pyrazol-1-yl)benzoate] the IC50 [2] was 684 nM.

With COC(=O)Cc1ccc(-n2nc(-c3ccsc3)cc2NC(=O)Nc2cccc(Cl)c2Cl)cc1 [Example 445, methyl 2-(4-(5-(3-(2,3-dichlorophenyl)ureido)-3-(thiophen-3-yl)-1H-pyrazol-1-yl)phenyl)acetate] the IC50 [1] was 0.01 µM.

CCOC(=O)c1cccc(-n2nc(C(C)(C)C)cc2NC(=O)Nc2cccc(F)c2F)c1 [Example 291, ethyl 3-{3-t-butyl-5-[3-(2,3-difluorophenyl)ureido]-1H-pyrazol-1-yl}benzoate] was tested, and the IC50 [2] was 5100 nM.

Compound O=C(O)Cc1ccc(-n2nc(-c3cccs3)cc2NC(=O)Nc2cccc(Cl)c2Cl)cc1 [Example 442, 2-(4-(5-(3-(2,3-dichlorophenyl)ureido)-3-(thiophen-2-yl)-1H-pyrazol-1-yl)phenyl)acetic acid] has an IC50 [1] of 0.005 µM.

For CC(C)(C)c1cc(NC(=O)Nc2cccc(Cl)c2Cl)n(-c2cccc(CN3C(=O)NC(=O)C3=O)c2)n1 [Example 482, 1-(3-tert-butyl-1-(3-((2,4,5-trioxoimidazolidin-1-yl)methyl)phenyl)-1H-pyrazol-5-yl)-3-(2,3-dichlorophenyl)urea], the IC50 [1] was 0.01 µM.

In the case of CC(C)(C)c1cc(NC(=O)Nc2ccc3c(c2)OCO3)n(-c2cccc(CC(=O)O)c2)n1 [Example 298, 2-(3-(5-[3-(benzo[1,3]dioxol-5-yl)ureido]-3-t-butyl-1H-pyrazol-1-yl)phenyl)acetic acid], the IC50 [2] is reported as 25 nM.

For NC(=O)Cc1cccc(-n2nc(C(F)(F)F)cc2NC(=O)Nc2cccc(Oc3cccnc3)c2)c1 [Example 503, 1-(1-(3-(2-amino-2-oxoethyl)phenyl)-3-(trifluoromethyl)-1H-pyrazol-5-yl)-3-(3-(pyridin-3-yloxy)phenyl)urea], the IC50 [1] was 1.5 µM.

Work on CC(Cc1cccc(-n2nc(-c3ccccc3F)cc2NC(=O)Nc2cccc(Cl)c2Cl)c1)C(N)=O (stereo not shown) [Example 489, 1-(1-(3-(3-amino-2-methyl-3-oxopropyl)phenyl)-3-(2-fluorophenyl)-1H-pyrazol-5-yl)-3-(2,3-dichlorophenyl)urea] yielded an IC50 [1] of 0.066 µM.

COc1cccc(-n2nc(C)cc2NC(=O)Nc2cccc(Br)c2)c1 [Example 234, 1-(3-bromophenyl)-3-(1-(3-methoxyphenyl)-3-methyl-1H-pyrazol-5-yl)urea] was tested, and the IC50 [2] was 11000 nM.

O=C(O)Cc1cccc(-n2nc(-c3ccc(F)cc3)cc2NC(=O)Nc2cccc(Cl)c2Cl)c1 [Example 431, 2-(3-(5-(3-(2,3-dichlorophenyl)ureido)-3-(4-fluorophenyl)-1H-pyrazol-1-yl)phenyl)acetic acid] was tested, and the IC50 [1] was 0.028 µM.

Compound CC(C)(C)c1cc(NC(=O)Nc2ccc(Cl)cc2)n(-c2cccc(CCN3CCOCC3)c2)n1 [Example 197, 1-{3-tert-butyl-1-[3-(2-morpholinoethyl)phenyl]-1H-pyrazol-5-yl}-3-(4-chlorophenyl)urea] has an IC50 [2] of 243 nM.

In the case of O=C(O)Cc1ccc(-n2nc(-c3ccccc3)cc2NC(=O)Nc2cccc(Cl)c2Cl)cc1 [Example 438, 2-(4-(5-(3-(2,3-dichlorophenyl)ureido)-3-phenyl-1H-pyrazol-1-yl)phenyl)acetic acid], the IC50 [1] is reported as 0.01 µM.

Work on Cc1ccc(NC(=O)Nc2cc(C(C)(C)C)nn2-c2cccc(CC(N)=O)c2)cc1Nc1nccc(-c2cccnc2)n1 [Example 516, 1-(1-(3-(2-amino-2-oxoethyl)phenyl)-3-tert-butyl-1H-pyrazol-5-yl)-3-(4-methyl-3-(4-(pyridin-3-yl)pyrimidin-2-ylamino)phenyl)urea] yielded an IC50 [1] of 0.015 µM.

O=C(Nc1cccc(Cl)c1Cl)Nc1cc(-c2cccs2)nn1-c1cccc(CO)c1 [Example 486, 1-(2,3-dichlorophenyl)-3-(1-(3-(hydroxymethyl)phenyl)-3-(thiophen-2-yl)-1H-pyrazol-5-yl)urea] was tested, and the IC50 [1] was 0.005 µM.

O=C(Nc1cccc(Cl)c1Cl)Nc1cc(-c2ccccc2F)nn1-c1cccc(CO)c1 [Example 485, 1-(2,3-dichlorophenyl)-3-(3-(2-fluorophenyl)-1-(3-(hydroxymethyl)phenyl)-1H-pyrazol-5-yl)urea] was tested, and the IC50 [1] was 0.012 µM.

CC(C)(C)c1cc(NC(=O)Nc2ccc(F)cc2F)n(-c2ccc(CC(=O)O)cc2)n1 [Example 497, 2-(4-(3-tert-butyl-5-(3-(2,4-difluorophenyl)ureido)-1H-pyrazol-1-yl)phenyl)acetic acid] was tested, and the IC50 [1] was 0.018 µM.

CCOC(=O)Cc1ccc(-n2nc(C3CCCC3)cc2NC(=O)Nc2cccc(Cl)c2Cl)cc1 [Example 437, ethyl 2-(4-(3-cyclopentyl-5-(3-(2,3-dichlorophenyl)ureido)-1H-pyrazol-1-yl)phenyl)acetate] gave an IC50 [1] of 0.029 µM.

O=C(Cc1cccc(-n2nc(-c3ccccc3)cc2NC(=O)Nc2cccc(Cl)c2Cl)c1)NCCO [Example 454, 1-(2,3-dichlorophenyl)-3-(1-(3-(2-(2-hydroxyethylamino)-2-oxoethyl)phenyl)-3-phenyl-1H-pyrazol-5-yl)urea] was tested, and the IC50 [1] was 0.014 µM.

In the case of NC(=O)Cc1cccc(-n2nc(-c3cccs3)cc2NC(=O)Nc2cccc(Oc3cccnc3)c2)c1 [Example 502, 1-(1-(3-(2-amino-2-oxoethyl)phenyl)-3-(thiophen-2-yl)-1H-pyrazol-5-yl)-3-(3-(pyridin-3-yloxy)phenyl)urea], the IC50 [1] is reported as 0.034 µM.

For CN1CCN(C(=O)Cc2ccc(-n3nc(-c4ccccc4)cc3NC(=O)Nc3cccc(Cl)c3Cl)cc2)CC1 [Example 475, 1-(2,3-dichlorophenyl)-3-(1-(4-(2-(4-methylpiperazin-1-yl)-2-oxoethyl)phenyl)-3-phenyl-1H-pyrazol-5-yl)urea], the IC50 [1] was 0.037 µM.

In the case of CC(C)(C)c1cc(NC(=O)Nc2ccc(F)cc2F)n(-c2cccc(CC(N)=O)c2)n1 [Example 496, 1-(1-(3-(2-amino-2-oxoethyl)phenyl)-3-tert-butyl-1H-pyrazol-5-yl)-3-(2,4-difluorophenyl)urea], the IC50 [1] is reported as 0.031 µM.

Compound NC(=O)Cc1cccc(-n2nc(-c3ccc(F)cc3)cc2NC(=O)Nc2cccc(Cl)c2Cl)c1 [Example 448, 1-(1-(3-(2-amino-2-oxoethyl)phenyl)-3-(4-fluorophenyl)-1H-pyrazol-5-yl)-3-(2,3-dichlorophenyl)urea] has an IC50 [1] of 0.027 µM.

CC(Cc1cccc(-n2nc(-c3cccs3)cc2NC(=O)Nc2cccc(Cl)c2Cl)c1)C(=O)O (stereo not shown) [Example 490, 3-(3-(5-(3-(2,3-dichlorophenyl)ureido)-3-(thiophen-2-yl)-1H-pyrazol-1-yl)phenyl)-2-methylpropanoic acid] gave an IC50 [1] of 0.031 µM.

For O=C(Nc1ccc(F)c(F)c1F)Nc1cc(-c2cccs2)nn1-c1cccc(CO)c1 [Example 493, 1-(1-(3-(hydroxymethyl)phenyl)-3-(thiophen-2-yl)-1H-pyrazol-5-yl)-3-(2,3,4-trifluorophenyl)urea], the IC50 [1] was 0.042 µM.

For O=C(O)Cc1cccc(-n2nc(-c3cccs3)cc2NC(=O)Nc2cccc(Cl)c2Cl)c1 [Example 435, 2-(3-(5-(3-(2,3-dichlorophenyl)ureido)-3-(thiophen-2-yl)-1H-pyrazol-1-yl)phenyl)acetic acid], the IC50 [1] was 0.006 µM.
